Reference: patent US20040248766A1, “Selective inhibition of intracellular amyloid-beta neurotoxicity in human neurons” (priority 2001, published 2004)

Test system: primary human neurons
Experiment: Microinjection of Aβ peptides into the cytosol of primary human neurons, cell death by TUNEL
Format: cell-based
Conditions: peptide microinjected into cytosol
Experimental: Cell cultures. Primary cultures of human neurons and astrocytes were prepared as described in LeBlanc, A., J. Neurosci. 15:7837-46 (1995), incorporated herein by reference. Fresh brain tissues were dissociated with 0.25% trypsin (Gibco-BRL) in phosphate buffered saline (PBS) at 37° C. for 15 minutes. The trypsin was inactivated. by adding 10% decomplemented fetal bovine serum (FBS, HyClone, Logan, Utah.) to the mixture. The dissociated tissues were triturated in 0.1 mg/ml DNaseI (Gibco-BRL) to obtain a homogeneous mixture. The mixture was filtered successively through 130 and 70 gm filters and centrifuged at 15,000 g for 10 minutes at 10° C. to pellet the cells. The cell pellet was washed once with PBS and once with minimal essential media (MEM, Gibco-BRL) in Earle's balanced salt solution containing 0.225% sodium bicarbonate, 1 mM sodium pyruvate, 2 mM L-glutamine, 0.1% dextrose, 1×antibiotic Pen-Strep (all from Gibco-BRL) and 5% decomplemented FBS.
The cells were plated on poly-L-lysine-coated ACLARTM (Cat. No.: 33C; thickness: 0.5 mm; Allied Chemical, Minneapolis, Minn.) coverslips at a density of 3×10^6 cells/ml. Neurons and astrocytes were incubated at 37° C. in the MEM media with 5% CO2, and the media were changed every 48 hours. […]

## Aβ2-42: Aβ2-42 generated by caspase cleavage, lacks N-terminal aspartic acid
  intracellular toxicity to human neurons (in words): not found to be neurotoxic
